US8846682B2, “Compound suitable for the treatment of synucleopathies” (Neuropore Therapies, Inc., priority 2009, dated 2014)
Like-named read-outs stand apart in the source and are kept apart here.

Key:
[1] = target: T1, SYN (Homo sapiens, UniProt P37840)
[2] = target: T1, SYN; conditions: B103 cells, immunoblot
[3] = target: T1, SYN; remark: listed apart in the source

SMILES: CCCCNC(=O)C(Cc1c[nH]c2ccccc12)NC(=O)c1cnc(N2CCNCC2)s1 (stereo not drawn) [NPT200-5]
- reduction of SYN aggregation ([1]; 0.1 μM concentration, SYN at 5 μM): 50%
- blocking SYN aggregation ([1]; early and later time points of the oligomerization process, 37° C., 0-24 hours, FIG. 4): completely blocking SYN aggregation
- reduction of SYN levels ([2]; 0.1 μM concentration): 50%
- reduction in the levels of aggregates (but also the monomers) in the various fractions ([2]; LV-SYN, 24 hrs treatment, soluble and insoluble fractions, FIG. 5): 50-60%
- reduction of SYN levels ([3]; 0.1 μM concentration, immunocytochemistry/confocal): 50%
- reduction in the levels of aggregates in the neuronal cell bodies and neurites ([3]; 24 hrs treatment in serum free media, confocal microscopy, FIG. 6): 60-65%
